Columns and labels:
human serum BChE (hBChE) = target: T1, human serum BChE (hBChE) (Homo sapiens, UniProt P06276); type: biochemical; details: Ellman method, mean ± standard error
T1 construct: human serum BChE (hBChE); purchased Sigma (Milan, Italy); host or cells: human serum
Protocol: The human recombinant AChE (hAChE) and human serum BChE (hBChE) inhibitory activities of the new compounds 4–7 were tested by the widely used method of Ellman, using enzymes supplied by Sigma (Milan, Italy). The stock and assay solutions were prepared as follows:
Stock hBChE solution: solution of the lyophilized powder in 0.1% aq. gelatin.
Stock solutions of the new compounds: 1 mM solutions in methanol, with further dilutions in this solvent to the desired concentrations.
Assay solutions: mixture of 340 μM 5,5′-dithiobis(2-nitrobenzoic acid), hAChE or hBChE (0.02 unit/mL), and 0.1 M potassium phosphate (pH 8.0)
Acetylthiocholine iodide or butyrylthiocholine iodide (550 μM), as substrates, were added to the assay solutions, with or without the compounds to be tested, previously preincubated for 20 min at 37 °C. […] A Jasco V-530 double-beam spectrophotometer, featuring cuvette holders kept at 37 °C, was used to monitor the initial rates at 412 nm. […]

Chains of the proteins cited; added tags and fusions are not shown. Residues count along the entry.
UniProt P06276, 29-602: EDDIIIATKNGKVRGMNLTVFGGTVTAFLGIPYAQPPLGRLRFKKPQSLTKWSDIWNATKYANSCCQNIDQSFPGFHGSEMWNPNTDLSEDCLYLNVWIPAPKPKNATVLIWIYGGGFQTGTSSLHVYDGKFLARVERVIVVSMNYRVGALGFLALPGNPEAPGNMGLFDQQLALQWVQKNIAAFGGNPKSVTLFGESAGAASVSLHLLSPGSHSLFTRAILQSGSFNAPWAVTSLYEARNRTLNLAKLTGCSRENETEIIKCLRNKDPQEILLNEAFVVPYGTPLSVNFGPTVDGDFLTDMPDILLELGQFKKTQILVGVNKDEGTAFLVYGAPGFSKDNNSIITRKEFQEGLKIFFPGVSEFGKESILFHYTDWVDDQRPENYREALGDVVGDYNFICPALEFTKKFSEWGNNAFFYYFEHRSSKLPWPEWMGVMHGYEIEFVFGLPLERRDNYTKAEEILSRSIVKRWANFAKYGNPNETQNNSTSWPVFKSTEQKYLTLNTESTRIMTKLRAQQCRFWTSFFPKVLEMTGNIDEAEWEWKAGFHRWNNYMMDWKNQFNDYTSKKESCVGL

[1] = Plasma stability, human plasma; type: in vitro ADME; details: 37 °C, read-out: Plasma Stability % Remaining Compound, human, 6 h
Protocol: The plasma stability of the new compounds was tested using in human, mouse, and rat plasma (Seralab). One hundred μL of 5 μM solutions of the new compounds in plasma were plated and incubated at 37 °C for 0, 60, 120, and 360 min, and then treated with 300 μL of acetonitrile and centrifuged (4000× g; 60 min; 4 °C). Sample quantification was performed by UPLC/MS/MS analysis of the resulting supernatant using a UPLC QSM Waters Acquity apparatus, equipped with a Waters ACQUITY BEH C18 1.7 μm 2.1 × 50 mm column, eluting with 0.1% formic acid in water or in acetonitrile, with a flow of 0.6 mL/min. The gradient indicated in Table 1 was used in this assay.
Compound concentration was calculated from the MS peak areas and expressed as the percentage of remaining compound at the different tested times.

SMILES	IC50 (human serum BChE (hBChE)) [nM]	remaining at 6 h, 5 μM [1] [%]
CC1=CC2Cc3nc4cc(Cl)ccc4c(N)c3C(C1)C2 (centres unmarked) [HupY, huprine Y, reference compound]	181 ± 15	–
CC1=CC2Cc3nc4cc(Cl)ccc4c(NCCCCCCCCCNC(=O)c4cc(O)c5c(c4)C(=O)c4cccc(O)c4C5=O)c3C(C1)C2 (centres unmarked) [Compound 3]	–	84.4

Reference: article PMC11359831, “Stepwise Structural Simplification of the Dihydroxyanthraquinone Moiety of a Multitarget Rhein-Based Anti-Alzheimer Lead to Improve Drug Metabolism and Pharmacokinetic Properties” (Pharmaceutics, 2024)
